Source: patent US10172863B2, “Purine derivatives useful as HSP90 inhibitors” (Sloan-Kettering Institute for Cancer Research, priority 2009, dated 2019)

test system: JNPL3 brain Hsp90; conditions: not given

| EC50 | SMILES |
| --- | --- |
| 0.0308 to 0.054 µM | CC(C)NCCCn1c(Sc2cc3c(cc2I)OCO3)nc2c(N)ncnc21 [PU-H71, reference compound] |

same assay, conditions: read-out: EC50; binding to JNPL3 brain Hsp90; JNPL3 brain cell lysate

| SMILES | EC50 |
| --- | --- |
| CC(C)NCCCn1c(Sc2cc3c(cc2-c2ccc(C(C)(C)C)cc2)OCO3)nc2c(N)ncnc21 [Compound 4A-2, 8-(6-(4-tert-butylphenyl)benzo[d][1,3]dioxol-5-ylthio)-9-(3-(isopropylamino)propyl)-9H-purin-6-amine] | 2.67 µM |
| CC(C)NCCCn1c(Sc2cc3c(cc2-c2cc(C(F)(F)F)cc(C(F)(F)F)c2)OCO3)nc2c(N)ncnc21 [Compound 4A-3, 8-(6-(3,5-bis(trifluoromethyl)phenyl)benzo[d][1,3]dioxol-5-ylthio)-9-(3-(isopropylamino)propyl)-9H-purin-6-amine] | > 100 µM |
| NCCCCCCNCCCn1c(Sc2cc3c(cc2-c2cc(C(F)(F)F)cc(C(F)(F)F)c2)OCO3)nc2c(N)ncnc21 [Compound 4A-4, N1-(3-(6-amino-8-(6-(3,5-bis(trifluoromethyl)phenyl)benzo[d][1,3]dioxol-5-ylthio)-9H-purin-9-yl)propyl)hexane-1,6-diamine] | 8.29 µM |
| COc1ccc(-c2cc3c(cc2Sc2nc4c(N)ncnc4n2CCCNC(C)C)OCO3)cc1 [Compound 4A-6, 9-(3-(isopropylamino)propyl)-8-(6-(4-methoxyphenyl)benzo[d][1,3]dioxol-5-ylthio)-9H-purin-6-amine] | 0.438 µM |
| CC(C)NCCCn1c(Sc2cc3c(cc2-c2ccc(C=O)cc2)OCO3)nc2c(N)ncnc21 [Compound 4A-8, 4-(6-(6-amino-9-(3-(isopropylamino)propyl)-9H-purin-8-ylthio)benzo[d][1,3]dioxol-5-yl)benzaldehyde] | 2.33 µM |
| CC(C)NCCCn1c(Sc2cc3c(cc2C#Cc2ccccc2)OCO3)nc2c(N)ncnc21 [Compound 4B-3, 9-(3-(isopropylamino)propyl)-8-(6-(phenylethynyl)benzo[d][1,3]dioxol-5-ylthio)-9H-purin-6-amine] | 0.731 µM |
| CC(C)NCCCn1c(Sc2cc3c(cc2-c2cnoc2)OCO3)nc2c(N)ncnc21 [Compound 4C-10, 9-(3-(isopropylamino)propyl)-8-(6-(isoxazol-4-yl)benzo[d][1,3]dioxol-5-ylthio)-9H-purin-6-amine] | > 0.3 µM |
| CC(C)NCCCn1c(Sc2cc3c(cc2CC#N)OCO3)nc2c(N)ncnc21 [Compound 4E-3, 2-(6-((6-amino-9-(3-(isopropylamino)propyl)-9H-purin-8-yl)thio)benzo[d][1,3]dioxol-5-yl)acetonitrile] | 0.542 µM |
| CC(C)NCCCn1c(Sc2cc3c(cc2-c2ccncc2)OCO3)nc2c(N)ncnc21 [Compound 4F-1, 9-(3-(isopropylamino)propyl)-8-(6-(pyridin-4-yl)benzo[d][1,3]dioxol-5-ylthio)-9H-purin-6-amine] | 4.12 µM |
| CC(C)NCCCn1c(Sc2cc3c(cc2-c2ccnn2C)OCO3)nc2c(N)ncnc21 [Compound 4G-4, 9-(3-(isopropylamino)propyl)-8-(6-(1-methyl-1H-pyrazol-5-yl)benzo[d][1,3]dioxol-5-ylthio)-9H-purin-6-amine] | > 0.3 µM |

Further lines, results first:

| EC50 | SMILES |
| --- | --- |
| 0.133 to 0.346 µM | CC(C)NCCCn1c(Sc2cc3c(cc2I)OCC3)nc2c(N)ncnc21 [Compound 1A-1, 8-((6-iodo-2,3-dihydrobenzofuran-5-yl)thio)-9-(3-(isopropylamino)propyl)-9H-purin-6-amine] |
| 0.008 to 0.014 µM | CC(C)NCCCn1c(Sc2cc3c(cc2I)CCO3)nc2c(N)ncnc21 [Compound 1B-2, 8-((5-iodo-2,3-dihydrobenzofuran-6-yl)thio)-9-(3-(isopropylamino)propyl)-9H-purin-6-amine] |
| 0.0333 µM | CC(C)NCCCn1c(Cc2cc3c(cc2I)CCO3)nc2c(N)nc(F)nc21 [Compound 1B-4, 2-fluoro-8-((5-iodo-2,3-dihydrobenzofuran-6-yl)methyl)-9-(3-(isopropylamino)propyl)-9H-purin-6-amine] |
| 0.0191 µM | C#Cc1cc2c(cc1Sc1nc3c(N)ncnc3n1CCCNC(C)C)OCO2 [Compound 4B-1, 8-(6-ethynylbenzo[d][1,3]dioxol-5-ylthio)-9-(3-(isopropylamino)propyl)-9H-purin-6-amine] |
| 0.403 µM | CC(C)NCCCn1c(Sc2cc3c(cc2C#CC(C)(C)C)OCO3)nc2c(N)ncnc21 [Compound 4B-2, 8-(6-(3,3-dimethylbut-1-ynyl)benzo[d][1,3]dioxol-5-ylthio)-9-(3-(isopropylamino)propyl)-9H-purin-6-amine] |
| 0.011 µM | CC(C)NCCCn1c(Sc2cc3c(cc2-c2ccco2)OCO3)nc2c(N)ncnc21 [Compound 4C-1, 8-(6-(furan-2-yl)benzo[d][1,3]dioxol-5-ylthio)-9-(3-(isopropylamino)propyl)-9H-purin-6-amine] |
| 0.048 µM | CC(C)NCCCn1c(Sc2cc3c(cc2-c2ccoc2)OCO3)nc2c(N)ncnc21 [Compound 4C-2, 8-(6-(furan-3-yl)benzo[d][1,3]dioxol-5-ylthio)-9-(3-(isopropylamino)propyl)-9H-purin-6-amine] |
| 0.056 µM | CC(C)NCCCn1c(Sc2cc3c(cc2-c2ccc(C=O)o2)OCO3)nc2c(N)ncnc21 [Compound 4C-6, 5-(6-(6-amino-9-(3-(isopropylamino)propyl)-9H-purin-8-ylthio)benzo[d][1,3]dioxol-5-yl)furan-2-carbaldehyde] |
| 0.023 µM | Cc1ccc(-c2cc3c(cc2Sc2nc4c(N)ncnc4n2CCCNC(C)C)OCO3)o1 [Compound 4C-8, 9-(3-(isopropylamino)propyl)-8-(6-(5-methylfuran-2-yl)benzo[d][1,3]dioxol-5-ylthio)-9H-purin-6-amine] |
| 0.043 µM | CC(C)NCCCn1c(Sc2cc3c(cc2-c2cccs2)OCO3)nc2c(N)ncnc21 [Compound 4D-1, 9-(3-(isopropylamino)propyl)-8-(6-(thiophen-2-yl)benzo[d][1,3]dioxol-5-ylthio)-9H-purin-6-amine] |
| 0.219 µM | CC(C)NCCCn1c(Cc2cc3c(cc2C#N)OCO3)nc2c(N)nc(F)nc21 [Compound 4E-1, 6-((6-amino-2-fluoro-9-(3-(isopropylamino)propyl)-9H-purin-8-yl)methyl)benzo[d][1,3]dioxole-5-carbonitrile] |
| 0.374 µM | CC(C)NCCCn1c(Sc2cc3c(cc2-c2cn[nH]c2)OCO3)nc2c(N)ncnc21 [Compound 4G-1, 8-(6-(1H-pyrazol-4-yl)benzo[d][1,3]dioxol-5-ylthio)-9-(3-(isopropylamino)propyl)-9H-purin-6-amine] |
| 0.004 µM | CC(C)NCCCn1c(Sc2cc3c(cc2-c2cc[nH]n2)OCO3)nc2c(N)ncnc21 [Compound 4G-6, 8-(6-(1H-pyrazol-3-yl)benzo[d][1,3]dioxol-5-ylthio)-9-(3-(isopropylamino)propyl)-9H-purin-6-amine] |
| 0.309 µM | CC(C)NCCCn1c(Sc2cc3c(cc2-c2ccc[nH]2)OCO3)nc2c(N)ncnc21 [Compound 4H-1, 8-(6-(1H-pyrrol-2-yl)benzo[d][1,3]dioxol-5-ylthio)-9-(3-(isopropylamino)propyl)-9H-purin-6-amine] |
| 0.057 µM | CC(C)NCCCn1c(Sc2cc3c(cc2-c2cc[nH]c2)OCO3)nc2c(N)ncnc21 [Compound 4H-3, 8-(6-(1H-pyrrol-3-yl)benzo[d][1,3]dioxol-5-ylthio)-9-(3-(isopropylamino)propyl)-9H-purin-6-amine] |
